Data on 2 compounds can be found in US11390613B2, “Azole analogues and methods of use thereof” (UNIVERSITY OF CONNECTICUT, priority 2017, dated 2022).

What is called IC50 is the point on the concentration scale where inhibition reaches its midpoint. Read a high IC50 as lower potency.

This test has as its system Gli1 mRNA levels in the murine BCC cell line ASZ-001 (Hh pathway). As to the kind of experiment: Hh pathway inhibition: endogenous Gli1 mRNA (qRT-PCR) in ASZ-001 cells. The format is cell-based. The settings on record: Mus musculus, ASZ001, 48 h. The protocol:
Initial Hh inhibition studies.
General Information for Cell Culture Studies Protocols for general cell culture, qPCR, and Hh inhibition ASZ cells are as previously described.
General Information for Cell Culture Studies. Protocols for general cell culture, qPCR, and Hh inhibition ASZ cells are as previously described.
Gene Expression Assay Protocol (ASZ-001): Cells are seeded (10,000 cells per well; 100 μL total volume per well) in a 96-well tissue culture plate. After 24 h of incubation (37° C., 5% CO2), growth media was removed and replaced with low FBS media. Cells were incubated for an additional 24 h. After this time, DMSO (vehicle control) and liposomes (Aqueous Solution) were added to the wells. […]
Rt-PCR Protocol: Following treatment and incubation periods, both RNA extraction and cDNA synthesis were performed using a TaqMan Cells-to-CT (fast) kit. cDNA synthesis utilized a BioRad MyCycler and was programmed according to the manufacturer's instructions. Quantitative RT-PCR was performed on an ABI 7500 system and made use of the following TaqMan Gene Expression Probes: mouse ActB (Mm00607939_s1) and mouse Gli1 (Mm00494654_m1). Relative gene expression levels were computed via ΔΔCT method using GraphPad Prism. Corresponding IC50 values were calculated as mean±SEM for at least three separate experiments performed in triplicate.
A general note: Real-time PCR tracks product formation cycle by cycle.

Each structure is given as a SMILES string. Some results are limits rather than exact numbers.

In the case of `C[C@@]1(c2ccc(Cl)cc2Cl)OC[C@@H](COc2ccc(N3CCN(c4ccc(NC(=O)Oc5ccccc5)cc4)CC3)cc2)O1` [Compound 37, phenyl (4-(4-(4-(((2R,4R)-2-(2,4-dichlorophenyl)-2-methyl-1,3-dioxolan-4-yl)methoxy)phenyl)piperazin-1-yl)phenyl)carbamate], the IC50 is more than 10 µM.

Take `C[C@]1(c2ccc(Cl)cc2Cl)OC[C@@H](COc2ccc(N3CCN(c4ccc(NC(=O)Oc5ccccc5)cc4)CC3)cc2)O1` [Compound 38, phenyl (4-(4-(4-(((2S,4R)-2-(2,4-dichlorophenyl)-2-methyl-1,3-dioxolan-4-yl)methoxy)phenyl)piperazin-1-yl)phenyl)carbamate]: the IC50 is more than 10 µM.
